The source made the active and inactive calls.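 The calls were made as follows: active = a tumor-causing dose value with its tumor site reported for any sex and species group of a rodent or other animal cancer study; inconclusive = only studies judged inadequate by the national testing program; inactive = tested in at least one study, none positive.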 Entries that show only a call come without a potency.
Experiment: DSSTox (CPDBAS) Carcinogenic Potency Database Summary SingleCellCall Results
Conditions: animal chronic carcinogenicity bioassays, CPDB summary call
Description: The Carcinogenic Potency Database (CPDB) is a unique and widely used international resource of the results of over 6500 chronic, long-term animal cancer tests on over 1500 chemical substances. The CPDB provides easy access to the bioassay literature, with qualitative and quantitative analyses of both positive and negative experiments that have been published over the past 50 years in the general literature and by the National Cancer Institute/National Toxicology Program. The CPDB standardizes the diverse literature of cancer bioassays that vary widely in protocol, histopathological examination and nomenclature, and in the published author's choices of what information to provide in their papers. Results are reported in the CPDB for tests in rats, mice, hamsters, dogs, and nonhuman primates, and are based on the most positive result among all experiments for each sex-species. The DSSTox CPDBAS (all species) file incorporates data from the CPDB Summary Tables for the full list of over 1500 chemical substances tested in at least one species. A summary SingleCellCall, based on experimental bioassay results of one or more species, is provided for the entire DSSTox CPDBAS file (see Source URL).
An assignment of categorical carcinogenic activity based on minimal evidence for or against activity. […]

Row | Compound | outcome
1 | O=[N+]([O-])C(Cl)(Cl)Cl | inactive
2 | CN(CCCl)CCCl | active

Reference: PubChem BioAssay AID1189 (EPA DSSTox, 2008)
